The subject of this test is Glycine max. Description: Inhibition of soybean LOX assessed as conversion of sodium linoleate to 13- hydroperoxylinoleic acid at 100 uM. Put shortly: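 Compound in DMSO incubated at room temperature with sodium linoleate (0.1 ml) and soybean LOX solution (0.2 ml) in saline. Conversion to 13-hydroperoxylinoleic acid recorded at 234 nm and compared with a standard inhibitor. At least triplicate.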

The structures appear in SMILES notation.

In general, inhibition refers to the percentage by which the read-out fell short of the control.

For the compound `CC(Cc1ccc(O)c(O)c1)C(C)Cc1ccc(O)c(O)c1` (stereo unspecified), the inhibition was determined as 84%.
